According to patent publication US20210205271A1 (The Johns Hopkins University, priority 2018, published 2021):

What was measured:
[1] = mouse, in vivo, 30 mg/kg
[2] = mouse, in vivo, iv, 1.5 mg/kg
[3] = mouse, in vivo, po, 30 mg/kg

MBZ plasma concentration at 1 h post oral administration [1]: 2.86 ± 0.25 nmol/mL | t1/2 [2]: 43.8 min | brain AUC0-t [3]: 13.1 µM·h
Substance: Mebendazole [MBZ-C]
